Measured values taken from ChEMBL document CHEMBL3425496, “Exploring experimental and computational markers of cyclic peptides: Charting islands of permeability” (Eur J Med Chem, 2015).

Tests used:
[1] = Apparent permeability of the compound at 50 uM after 5 hrs by PAMPA method; type: physicochemical
[2] = Apparent permeability from apical to basolateral side in human Caco2 cells by LC-MS analysis; type: ADME, cell-based; conditions: Caco-2

| SMILES | Papp at 5 h, 50 µM [1] | Papp A→B [2] |
| --- | --- | --- |
| CC(C)C[C@@H]1NC(=O)[C@H](Cc2ccc(O)cc2)N(C)C(=O)[C@H]2CCCN2C(=O)[C@H](CC(C)C)NC(=O)[C@H](CC(C)C)N(C)C(=O)[C@@H](CC(C)C)N(C)C1=O | 0.58 ×10⁻⁶ cm/s | – |
| CC(C)C[C@@H]1NC(=O)[C@H](Cc2ccc(O)cc2)NC(=O)[C@H]2CCCN2C(=O)[C@H](CC(C)C)NC(=O)[C@H](CC(C)C)NC(=O)[C@@H](CC(C)C)NC1=O | 1.24 ×10⁻⁶ cm/s | 1.23 ×10⁻⁶ cm/s |
| CC(C)C[C@@H]1NC(=O)[C@H](CC(C)C)NC(=O)[C@@H](CC(C)C)NC(=O)[C@H](Cc2ccc(O)cc2)NC(=O)[C@@H]2CCCN2C(=O)[C@H](CC(C)C)NC1=O | 0.59 ×10⁻⁶ cm/s | 0.37 ×10⁻⁶ cm/s |
| CC(C)C[C@@H]1NC(=O)[C@H](Cc2ccc(O)cc2)NC(=O)[C@H]2CCCN2C(=O)[C@@H](CC(C)C)NC(=O)[C@H](CC(C)C)NC(=O)[C@@H](CC(C)C)NC1=O | 0.11 ×10⁻⁶ cm/s | 0.59 ×10⁻⁶ cm/s |
| CC(C)C[C@@H]1NC(=O)[C@H](Cc2ccc(O)cc2)NC(=O)[C@@H]2CCCN2C(=O)[C@@H](CC(C)C)NC(=O)[C@@H](CC(C)C)NC(=O)[C@@H](CC(C)C)NC1=O | 1.61 ×10⁻⁶ cm/s | 1.43 ×10⁻⁶ cm/s |
| CC(C)C[C@@H]1NC(=O)[C@@H](CC(C)C)NC(=O)[C@@H](CC(C)C)NC(=O)[C@@H](CC(C)C)NC(=O)[C@H](Cc2ccc(O)cc2)NC(=O)[C@@H]2CCCN2C1=O | 0.11 ×10⁻⁶ cm/s | 0.14 ×10⁻⁶ cm/s |
| CC(C)C[C@@H]1NC(=O)[C@@H](CC(C)C)NC(=O)[C@@H](CC(C)C)NC(=O)[C@H](Cc2ccc(O)cc2)NC(=O)[C@@H]2CCCN2C(=O)[C@@H](CC(C)C)NC1=O | 3.49 ×10⁻⁶ cm/s | 12 ×10⁻⁶ cm/s |
| CC(C)C[C@@H]1NC(=O)[C@@H](CC(C)C)N(C)C(=O)[C@H](CC(C)C)NC(=O)[C@H](Cc2ccc(O)cc2)NC(=O)[C@H]2CCCN2C(=O)[C@H](CC(C)C)NC1=O | – | 1.68 ×10⁻⁶ cm/s |
